The source of these data is ChEMBL document CHEMBL3232993, “Design, synthesis, and structure-activity relationship of a novel series of GluN2C-selective potentiators” (J Med Chem, 2014).

Protein sequences, listed by entry. Tags and fused reporters are not part of them. Lines headed by an entry give the natural chain unless they say otherwise; changes in a name come on top.
UniProt Q00961: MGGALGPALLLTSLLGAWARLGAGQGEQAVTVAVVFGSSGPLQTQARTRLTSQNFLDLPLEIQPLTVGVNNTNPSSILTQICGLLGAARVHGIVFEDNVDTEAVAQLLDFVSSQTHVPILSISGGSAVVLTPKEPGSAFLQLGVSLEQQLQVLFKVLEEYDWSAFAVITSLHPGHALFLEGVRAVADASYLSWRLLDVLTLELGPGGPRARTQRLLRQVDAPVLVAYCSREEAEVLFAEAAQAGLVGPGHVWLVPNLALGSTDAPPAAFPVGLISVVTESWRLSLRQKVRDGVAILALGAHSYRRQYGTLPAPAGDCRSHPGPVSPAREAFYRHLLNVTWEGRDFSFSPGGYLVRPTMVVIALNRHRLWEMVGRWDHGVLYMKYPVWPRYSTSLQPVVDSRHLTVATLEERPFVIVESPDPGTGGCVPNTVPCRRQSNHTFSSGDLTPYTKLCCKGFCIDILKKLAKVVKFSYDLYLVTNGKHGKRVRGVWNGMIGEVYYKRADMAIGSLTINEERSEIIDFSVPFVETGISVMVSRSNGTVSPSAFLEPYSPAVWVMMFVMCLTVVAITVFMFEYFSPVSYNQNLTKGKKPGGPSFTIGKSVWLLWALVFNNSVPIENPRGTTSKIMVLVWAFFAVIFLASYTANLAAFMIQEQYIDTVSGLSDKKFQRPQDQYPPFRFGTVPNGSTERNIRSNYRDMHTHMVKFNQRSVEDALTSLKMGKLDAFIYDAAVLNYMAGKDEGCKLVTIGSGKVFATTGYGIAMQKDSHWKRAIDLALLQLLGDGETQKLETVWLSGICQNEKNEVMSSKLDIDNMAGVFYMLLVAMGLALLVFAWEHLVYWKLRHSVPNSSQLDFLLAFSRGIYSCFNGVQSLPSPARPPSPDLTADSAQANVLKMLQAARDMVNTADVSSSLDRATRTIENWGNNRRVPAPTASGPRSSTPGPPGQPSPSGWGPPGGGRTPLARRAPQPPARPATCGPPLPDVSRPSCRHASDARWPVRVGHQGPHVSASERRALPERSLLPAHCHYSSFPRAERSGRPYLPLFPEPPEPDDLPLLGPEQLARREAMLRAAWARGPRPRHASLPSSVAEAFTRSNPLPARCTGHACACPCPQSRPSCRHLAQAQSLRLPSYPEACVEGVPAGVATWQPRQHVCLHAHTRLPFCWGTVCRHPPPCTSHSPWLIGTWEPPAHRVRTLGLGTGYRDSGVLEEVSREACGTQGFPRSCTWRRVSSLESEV

For the assay, the target named is Glutamate NMDA receptor; Grin1/Grin2c (Rattus norvegicus, UniProt P35439+Q00961). Description: Potentiation of rat recombinant GluN1/GluN2C expressed in Xenopus laevis oocytes assessed as increase in glutamate/glycine-induced current response by two-electrode voltage clamp technique relative to control. Format: cell-based. A digest of the protocol: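 Compounds diluted from 20 mM DMSO stocks (final DMSO 0.05–0.5%) and screened at 30 μM. EC₅₀ and maximum fitted from 5–7 concentrations when response exceeded 120% of control, normalized per oocyte; mean ± SEM.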
(In general: Two-electrode voltage clamp is typically applied to oocytes expressing channels or transporters.)

A word on the EC50: it is the concentration that produces a half-maximal response. Regarding `COC(=O)c1ccc(C2C(C(C)=O)=C(O)C(=O)N2CCc2c[nH]c3ccccc23)cc1` (stereo unspecified), the EC50 worked out at 24 µM.
